“Also recorded” adds a separate entry of the source.
What was measured:
[1] = tested on: metastatic solid tumors / lymphoma; assay: AlloCT with rIL-2 activated mismatched lymphocytes plus tumor-specific antibodies (case reports); format: in vivo, human
Description: (§1) In the absence of a fully matched donor available, we have decided to use haploidentically mismatched related lymphocytes for induction of transient anti-tumor effects. Donor-derived anti-cancer effector lymphocytes consisted of rIL-2 activated cells (four days activation with rIL-26,000 IU/ml) or using donor lymphocytes activated in vitro against irradiated tumor cells or host alloantigens in one way mixed lymphocyte tumor reaction or using donor lymphocytes pre-cultured with irradiated parental or other family member expressing either one of the patient's haplotypes in one way mixed lymphocyte cultures (in order to induce effector cells against inherited paternal or maternal haplotypes, to maximize anti-host alloreactivity to be used as adoptive allogeneic cell therapy (alloCT). In order to maximize anti-cancer effects, patients can be immunosuppressed with Fludarabine 25 mg/m^2×5 days. […] Following cell infusion, patients receive subcutaneously rIL-2 6×10^6 IU/m^2 in an attempt to continue to activate in vivo donor anti-tumor reactive lymphocytes. Two weeks post cell therapy, patient may receive injections of alpha interferon 3×10^6 IU every other day subcutaneously as anti-proliferative and mostly as anti-angiogenic effects to minimize or jeopardize tumor cell growth from residual tumor cells escaping alloCT.
This patient was treated with the protocol. The dose of Herceptin infused was 2 mg/Kg (total dose 110 mg). Total number of rIL-2 activated lymphocytes obtained from their haploidentically mismatched sister was 10^7 nucleated cells/Kg. In parallel, patient received Eprex (recombinant human erythropoietin) and Neupogen (granulocyte-colony stimulating factor or “G-CSF”) (not part of the protocol) due to pancytopenia. The procedure was uneventful except for mild fever and tremor which accompanied the cell infusion, but it was transient and discontinued as soon as the infusion was over. No signs of GVHD developed.
The alloCT course was done according to the scheme described. This time Herceptin was given prior to infusions of rIL-2 activated peripheral blood cells obtained from their haploidentically mismatched brother, a total of 2-10^7 nucleated cells/Kg. A month later, the patient was treated with Herceptin, rIL-2 activated peripheral blood lymphocytes from another haploidentically mismatched brother, to a total of 2.52×10 nucleated cells/Kg, followed by five days of rIL-2 6×10^6 IU/m^2.
Patient was diagnosed following onset of cervical lymphadenopathy. Non-Hodgkin lymphoma diffused large cell type (B cell type) was diagnosed and the patient was treated with six courses of CHOP for five consecutive months. First remission was accomplished on after this five month treatment. […]

[2] = tested on: BALB/c mouse spleen cells; assay: Mitogen-induced T cell proliferation ([3H]-thymidine incorporation); format: cell-based; details: ASTA-Z 100 μg/ml 30 min 37°C and/or IL-2 1,000 IU/ml
Procedure: Mitogen-induced T cell proliferative responses were measured by culturing spleen cells in the presence of the T cell mitogens concanavalin A (ConA, 10 μg/ml) or phytohemagglutinin (PHA, 1 μg/ml) for three days. [^3H]-thymidine was added to the cultures for the last 6 hours of culture and T cell proliferation was measured in terms of counts per minute (cpm) of [^3H]-thymidine incorporated into the DNA of the cells using cell harvesting and radioactivity techniques known to those in the art.
The ability of the drug mafosphamide (ASTA-Z), which is identical to 4-hydroxyperoxycyclophosphamide (4HC), to deplete BALB/c mouse spleen cells of T cell responsiveness was tested under in vitro conditions known to result in preservation of hemopoeitic stem cell activity after treatment of hemopoietic cells from humans as well experimental animals (e.g., mice). BALB/c spleen cells were cultured for 30 minutes at 37° C. in tissue culture medium containing 100 μg/ml of ASTA-Z and then tested for in vitro T cell responses.

[3] = Side effects of rIL-2 in alloCT patients (case reports); format: in vivo, human; details: single patients, subcutaneous rIL-2 6×10^6 IU/m^2 after cell infusion
Description: as §1

Substance	minimum level of TPS ([1]; patient NR)	minimum level of CA15.3 ([1]; patient NR, metastatic breast cancer, 223 U/ml before, Herceptin 2 mg/Kg with rIL-2 activated lymphocytes)	minimum level of carcino-embryonic antigen (CEA) ([1]; patient NR, 2.6 mg/ml before)	clinical outcome ([1]; single patients, antibody given with rIL-2 activated haploidentically mismatched lymphocytes)	Cell Proliferation, Con-A ([2]; ConA 10 μg/ml)	Cell Proliferation, PHA ([2]; PHA 1 μg/ml)	Cell Proliferation, No Mitogens ([2]; no mitogen)	side effects in response to rIL-2 [3]
Herceptin: anti-HER 2/Neu antibody	237 u/L	41 U/ml	1.4 mg/mL	partial response; also recorded: no signs of tumor regression	–	–	–	–
rIL-2: recombinant interleukin-2	–	–	–	–	52,287 cpm	39,390 cpm	31,090 cpm	diffuse maculopapular urticaria-like skin rash; also recorded: nausea, malaise, and fever and weight loss; also recorded: malaise, fever, vomiting and diarrhea; also recorded: fatigue and fever; also recorded: gained weight (4 Kg) with some peripheral edema
